One compound from paper PMC6545551 (ACS Omega, 2019) can be followed below.

Chains of the proteins cited; added tags and fusions are not shown. Residues count along the entry.
UniProt P23219, 24-599: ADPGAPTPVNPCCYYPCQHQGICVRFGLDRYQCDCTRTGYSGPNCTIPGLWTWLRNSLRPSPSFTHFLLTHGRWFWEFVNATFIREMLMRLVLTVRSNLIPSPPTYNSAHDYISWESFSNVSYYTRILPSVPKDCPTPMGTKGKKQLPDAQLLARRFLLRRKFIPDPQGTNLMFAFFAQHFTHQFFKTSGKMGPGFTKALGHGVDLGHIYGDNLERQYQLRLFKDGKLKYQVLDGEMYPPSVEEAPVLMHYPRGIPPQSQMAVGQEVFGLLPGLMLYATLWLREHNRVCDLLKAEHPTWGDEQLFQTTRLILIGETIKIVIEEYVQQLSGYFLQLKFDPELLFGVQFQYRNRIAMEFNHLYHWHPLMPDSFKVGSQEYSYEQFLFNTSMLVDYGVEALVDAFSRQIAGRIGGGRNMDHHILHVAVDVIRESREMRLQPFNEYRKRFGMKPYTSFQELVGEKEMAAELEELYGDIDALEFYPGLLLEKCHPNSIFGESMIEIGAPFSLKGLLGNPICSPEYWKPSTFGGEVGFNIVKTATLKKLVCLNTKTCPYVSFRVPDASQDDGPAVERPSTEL

For this assay, the target named is COX-1 in OVCAR3 cells (Homo sapiens, UniProt P23219). Briefly: Inhibition of COX-1 in intact OVCAR3 cells. The assay is classed as cell-based.

As usually defined, the IC50 is the point on the concentration scale where inhibition reaches its midpoint. A high value points to lower potency.

`CS(=O)(=O)c1ccc(C2=C(c3ccccc3)C(=O)OC2)cc1` [Refecoxib, reference compound] returned a 50% inhibitory concentration (IC50) above 5 µM.
